According to paper PMC2263054, “Functional evolution of the vitamin D and pregnane X receptors” (BMC Evolutionary Biology, 2007):

Tests used:
Conditions in all cases: screening for activators, at least three concentrations of each drug
Sea lamprey VDR = biological target: T1, Sea lamprey VDR (Petromyzon marinus, UniProt Q7ZZY9)
T1 sequence (Q7ZZY9 92-406): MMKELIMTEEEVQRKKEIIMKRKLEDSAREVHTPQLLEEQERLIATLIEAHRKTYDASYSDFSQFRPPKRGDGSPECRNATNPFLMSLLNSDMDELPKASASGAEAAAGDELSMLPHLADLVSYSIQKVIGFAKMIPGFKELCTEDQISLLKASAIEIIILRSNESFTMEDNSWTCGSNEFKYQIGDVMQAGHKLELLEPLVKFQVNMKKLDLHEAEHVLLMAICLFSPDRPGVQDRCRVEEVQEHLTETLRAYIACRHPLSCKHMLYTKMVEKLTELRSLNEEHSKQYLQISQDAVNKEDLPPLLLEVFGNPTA

Xenopus laevis VDR = biological target: T2, Xenopus laevis VDR (Xenopus laevis, UniProt O13124); experiment: luciferase reporter transactivation assay in HepG2-NTCP cells, GAL4/xlVDR LBD chimera with tk-UAS-Luc; format: cell-based
T2 sequence (O13124 90-422): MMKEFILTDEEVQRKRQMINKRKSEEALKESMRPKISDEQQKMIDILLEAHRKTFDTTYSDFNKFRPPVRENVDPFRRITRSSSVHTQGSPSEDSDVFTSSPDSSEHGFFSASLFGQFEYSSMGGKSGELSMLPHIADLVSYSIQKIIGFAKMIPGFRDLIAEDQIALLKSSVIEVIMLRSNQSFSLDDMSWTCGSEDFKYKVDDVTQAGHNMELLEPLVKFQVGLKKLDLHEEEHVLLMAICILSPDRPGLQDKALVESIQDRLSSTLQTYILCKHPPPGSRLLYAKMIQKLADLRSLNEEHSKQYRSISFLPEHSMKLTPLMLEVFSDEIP

Zebrafish VDR = biological target: T3, Zebrafish VDR (Danio rerio, UniProt Q9PTN2); experiment: luciferase reporter transactivation assay in HepG2-NTCP cells, GAL4/zfVDR LBD chimera with tk-UAS-Luc; format: cell-based
T3 sequence (Q9PTN2 121-453): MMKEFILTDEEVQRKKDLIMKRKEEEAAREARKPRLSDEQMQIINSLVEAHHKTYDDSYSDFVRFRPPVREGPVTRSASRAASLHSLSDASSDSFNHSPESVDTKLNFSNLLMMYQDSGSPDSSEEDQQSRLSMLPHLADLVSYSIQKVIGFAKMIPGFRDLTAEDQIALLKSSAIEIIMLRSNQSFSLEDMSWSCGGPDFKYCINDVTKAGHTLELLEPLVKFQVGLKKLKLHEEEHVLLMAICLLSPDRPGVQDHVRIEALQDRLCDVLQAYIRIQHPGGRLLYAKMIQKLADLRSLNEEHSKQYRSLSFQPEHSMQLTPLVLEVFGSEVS

CCCCC[C@H](O)/C=C/[C@@H]1[C@H]2C/C(=C/CCCC(=O)O)C[C@H]2C[C@H]1O [Carbacyclin]
Effect on sea lamprey VDR (Sea lamprey VDR): No effect
Effect on Xenopus laevis VDR (Xenopus laevis VDR): No effect
Effect on zebrafish VDR (Zebrafish VDR): No effect

CC#C[C@]1(O)CC[C@H]2[C@@H]3CCC4=CC(=O)CCC4=C3[C@@H](c3ccc(N(C)C)cc3)C[C@@]21C [Mifepristone]
Effect on zebrafish VDR (Zebrafish VDR): No effect
